Source: patent publication US6958335B2, “Treatment of gastrointestinal stromal tumors” (Novartis AG, priority 2000, dated 2005)

System: unresectable and/or metastatic malignant gastrointestinal stromal tumors (GIST)
Conditions: All doses (N = 147)
Experimental: A phase 2, open-label, randomized multinational study was conducted in patients with unresectable and/or metastatic malignant gastrointestinal stromal tumors (GIST). […] The primary evidence of efficacy was based on objective response rates, and the time to response, duration of response, time to treatment failure and survival were also evaluated. Tumors were required to be measurable in at least one site of disease, and response characterization based on Southwestern Oncology Group (SWOG) criteria.

With CS(=O)(=O)O.Cc1ccc(NC(=O)c2ccc(CN3CCN(C)CC3)cc2)cc1Nc1nccc(-c2cccnc2)n1 [SALT I] the “Best response: Progressive disease” value was 18 (12.2) n (%).
